Measured values reported in patent US8476302B2, “α-ketoamide derivatives useful endothelial lipase inhibitors” (Janssen Pharmaceutica N.V., priority 2010, dated 2013).

Protein sequences, listed by entry. Tags and fused reporters are not part of them. Residues count along the entry.
UniProt Q9Y5X9, 21-500 limits assumed: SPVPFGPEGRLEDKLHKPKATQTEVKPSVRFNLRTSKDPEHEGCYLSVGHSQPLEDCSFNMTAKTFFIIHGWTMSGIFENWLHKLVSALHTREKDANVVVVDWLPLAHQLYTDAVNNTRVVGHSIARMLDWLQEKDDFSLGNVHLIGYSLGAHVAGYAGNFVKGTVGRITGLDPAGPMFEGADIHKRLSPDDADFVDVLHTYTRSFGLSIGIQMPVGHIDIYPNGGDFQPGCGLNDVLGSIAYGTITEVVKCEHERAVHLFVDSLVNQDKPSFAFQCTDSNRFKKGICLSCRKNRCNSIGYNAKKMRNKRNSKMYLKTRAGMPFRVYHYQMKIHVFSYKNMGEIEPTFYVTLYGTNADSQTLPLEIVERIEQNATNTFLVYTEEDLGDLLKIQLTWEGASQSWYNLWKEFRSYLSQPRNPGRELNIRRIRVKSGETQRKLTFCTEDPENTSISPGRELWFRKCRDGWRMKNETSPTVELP
UniProt Q9WVG5, 21-500 limits assumed: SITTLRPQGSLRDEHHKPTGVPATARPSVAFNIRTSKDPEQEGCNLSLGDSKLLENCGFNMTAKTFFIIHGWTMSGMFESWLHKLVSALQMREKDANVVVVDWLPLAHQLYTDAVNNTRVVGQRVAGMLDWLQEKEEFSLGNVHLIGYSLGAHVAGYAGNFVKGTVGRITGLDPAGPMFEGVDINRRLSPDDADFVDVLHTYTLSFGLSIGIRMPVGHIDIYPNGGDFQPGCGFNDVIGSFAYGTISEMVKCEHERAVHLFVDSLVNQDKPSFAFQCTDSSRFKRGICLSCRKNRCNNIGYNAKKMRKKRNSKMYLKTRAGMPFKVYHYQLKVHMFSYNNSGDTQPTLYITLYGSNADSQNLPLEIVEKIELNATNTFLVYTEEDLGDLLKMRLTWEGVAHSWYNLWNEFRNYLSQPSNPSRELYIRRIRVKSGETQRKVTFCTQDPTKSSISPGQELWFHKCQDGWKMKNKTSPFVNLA

How the values were obtained:
[1] = target: human endothelial lipase (EL) (Homo sapiens, UniProt Q9Y5X9); assay: Endothelial Lipase Assay, cell surface lipase activity (human); details: read-out: Human IC50; cells expressing human EL, PLA1 substrate 10 μM, fluorescence reaction rate; several values in a cell are repeat determinations
Description: (§1) Endothelial Lipase Assay (Human/Mouse)
(§2) To assay for cell surface lipase activity, cells expressing human endothelial lipase (EL) or LPL were plated in CellBIND® 384-well plates (Corning, Lowell, Mass.) in 25 μL serum free medium at a density of 2000 cells/well. After 18-24 hours incubation at 37° C., the medium was removed and replaced with 15 μL assay buffer [Hank's Buffered Saline Solution with 25 mM HEPES pH 7.2] and 15 μL PLA1 for a final concentration of 10 μM using a Multidrop reagent dispenser. Fluorescence signal was monitored for 30 min at 37° C. on a Safire II plate reader in kinetic mode (60 cycles, kinetic interval: 30 seconds) with an excitation wavelength of 490 nm and an emission wavelength of 515 nm. Linear regression of the fluorescence intensity collected from 480 to 1500 seconds was used to calculate the reaction rate (the slope) and the slopes were used to calculate IC50 values where appropriate. The amount of BODIPY-labeled product generated was calculated at the 30 min time point as determined from standard curve analysis of purified BODIPY FL C5. In all studies using the inhibitor Ebelactone B, consistent results were obtained when it was dissolved as a stock in DMSO, immediately before use.

[2] = target: Mouse EL (Mus musculus, UniProt Q9WVG5); assay: Endothelial Lipase Assay, cell surface lipase activity (mouse); details: read-out: Mouse IC50, PLA1 substrate 10 μM, fluorescence reaction rate, several values in a cell are repeat determinations
Description: as §1, §2

Compound | IC50 [1] | IC50 [2]
O=C(CCCCCOc1cccc(Cl)c1)C(=O)NCc1nnc(-c2ccc(Oc3ccccc3)cc2)o1 | 1.8 µM | 0.457 µM
O=C(CCCCCCc1ccccc1)C(=O)NCc1nnc(-c2ccc(OCc3cc(Cl)nc(Cl)c3)cc2)s1 | 0.623 µM | 0.057 µM
O=C(CCCCCCc1ccccc1)C(=O)NCc1nnc(-c2ccc(OCc3cncc(F)c3)cc2)s1 | 1.29 µM | 4.41 µM
O=C(CCCCCCc1ccccc1)C(=O)NCc1nnc(-c2ccc([S+]([O-])Cc3ccccc3)cc2)o1 (centres unmarked) | 32 µM | 

These reach a lower IC50 [1]. Values come first.

IC50 [1] | IC50 [2] | Compound
0.34 µM | 0.174 µM | COC(=O)c1ccc(COc2ccc(-c3nnc(CNC(=O)C(=O)CCCCCCc4ccccc4)o3)cc2)o1
0.139 µM | 0.048 µM | O=C(CCCCCCc1ccccc1)C(=O)NCc1nnc(-c2ccc(OCCc3ccccc3)cc2)o1
